Data on two molecules can be found in patent US20240199683A1, “ANDROGEN RECEPTOR MODULATORS” (priority 2021, published 2024).

Sequences of proteins named here, by UniProt entry; tags and fusion partners are left off.
UniProt P10275, whole entry: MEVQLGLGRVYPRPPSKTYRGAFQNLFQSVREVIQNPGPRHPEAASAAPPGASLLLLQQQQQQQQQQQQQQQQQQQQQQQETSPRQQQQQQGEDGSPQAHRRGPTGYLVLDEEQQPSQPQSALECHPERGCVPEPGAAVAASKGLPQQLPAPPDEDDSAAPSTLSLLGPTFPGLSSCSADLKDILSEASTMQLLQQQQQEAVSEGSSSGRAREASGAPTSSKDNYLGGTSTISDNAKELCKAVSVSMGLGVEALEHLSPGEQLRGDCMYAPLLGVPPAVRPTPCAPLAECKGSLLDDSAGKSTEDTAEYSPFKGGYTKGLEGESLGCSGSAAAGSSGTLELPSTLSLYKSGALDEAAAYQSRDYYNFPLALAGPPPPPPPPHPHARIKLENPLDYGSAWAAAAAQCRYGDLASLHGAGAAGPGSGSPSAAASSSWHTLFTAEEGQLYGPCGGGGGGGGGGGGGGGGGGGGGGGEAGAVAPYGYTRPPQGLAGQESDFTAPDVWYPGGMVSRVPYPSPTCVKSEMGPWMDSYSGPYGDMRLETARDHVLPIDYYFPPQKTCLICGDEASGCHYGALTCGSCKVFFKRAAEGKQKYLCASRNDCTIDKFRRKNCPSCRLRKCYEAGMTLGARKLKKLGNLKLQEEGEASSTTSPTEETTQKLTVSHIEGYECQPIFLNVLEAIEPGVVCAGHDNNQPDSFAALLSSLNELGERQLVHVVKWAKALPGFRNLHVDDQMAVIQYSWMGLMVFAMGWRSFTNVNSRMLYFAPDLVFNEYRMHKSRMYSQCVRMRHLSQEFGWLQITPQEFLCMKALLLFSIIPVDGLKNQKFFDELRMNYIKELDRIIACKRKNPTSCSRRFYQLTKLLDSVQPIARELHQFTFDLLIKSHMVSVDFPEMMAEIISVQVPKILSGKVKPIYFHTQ

For one assay, the target named is androgen receptor (Homo sapiens, UniProt P10275). Briefly: Ki of Table A (method not described; AR binding assays mentioned generally).
A further assay deals with human AR (Homo sapiens, UniProt P10275). Briefly: human AR antagonist assay (Indigo Biosciences). In kind it is cell-based.
The mark [1] stands for this setting: Table A, values match the human AR antagonist assay.

The structures appear in SMILES notation.

Consider `CC(C)CCC[C@]12CC[C@@]3(C)C(=C1C[C@@H](O)C2)CC[C@H]1CC(=O)CC[C@@H]13`, for which the Ki at androgen receptor is 1700 nM. At human AR (Table 3, antagonist mode), this molecule came in with a HillSlope of 0.6338 and an IC50 of 696 nM. The molecule further came in with an IC50 against human AR (setting [1]) of 696 nM.

In turn, `C[C@]12CC[C@@]3(C)C(=C1C[C@@H](O)C2)CC[C@H]1C[C@@H](O)CC[C@@H]13` came in with an IC50 against human AR (setting [1]) of 4800 nM. In other words, the single-digit micromolar range.

A word on the Ki: it is the equilibrium dissociation constant of an inhibitor or competing ligand from its target. High values mean lower affinity, low ones higher affinity. Broadly, the IC50 is the concentration that inhibits the measured activity by half.
